Experimental data published in ChEMBL document CHEMBL1140479, “NO donors. Part 16: investigations on structure-activity relationships of organic mononitrates reveal 2-nitrooxyethylammoniumnitrate as a high potent vasodilator” (Bioorg Med Chem Lett, 2007).

Assay: Vasodilatory effect in pig pulmonary artery assessed as inhibition of PGF2-alpha-induced contraction
Format: functional, tissue-based
Details: Sus scrofa
Summary of the method: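 Porcine lungs from slaughterhouse; small pulmonary artery branches cut into rings (2–3 mm long, 1.5–2 mm diameter), tension measured in organ baths. Rings precontracted with PGF2α; test compounds added cumulatively at contraction plateau (up to 1 mM), DMSO as solvent. Endothelium checked by 10 nM bradykinin relaxation; denuded rings by gentle rubbing, pretreated with 0.2 mM L-NAME. Potency expressed as pD2.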

**Q.** With `CC(C)O[N+](=O)[O-]` as the compound, how does the pD2 read?
**A.** 3.36
